The values below come from PubChem BioAssay AID1259333 (Broad Institute, 2017).

For the assay, the system named is cytotoxicity, CellTiter-Glo ATP luminescence. Kind of assay: loss of cell viability by ATP content – CellTiter-Glo, cytotoxicity control, dose response (AID 1259333). (Cellular ATP, detected with luciferase, serves as a proxy for viable cell number.)

For `CCC1=CC2Cc3nc4ccc(Cl)cc4c(N)c3C(C1)C2` (stereo unspecified), the concentration at half-maximal activity (AC50) (in general, the midpoint of the concentration-response curve, whichever way the signal moves) is 8.01 µM.
